Results published in patent US8497075B2, “Methods of identifying a modulator that inhibits the binding between Epstein-Barr virus induced receptor 2 and cholesterol derived ligands” (Novartis AG, priority 2008, dated 2013).

System: 26 GPCR binding assays, 9 GPCR functional assays, 40 kinase assays, ion channels, proteases, transporter and enzyme assays
Description: So far oxysterols have been noted to have various physiological activities namely regulate the expression of genes that participate in both sterol and fat metabolism, serve as substrates for the synthesis of bile acids, and are intermediates in the transfer of sterols from the periphery to the liver (Russell, D. W. (2000). Oxysterol biosynthetic enzymes. Biochim. Biophys. Acta 1529, 126-135). […] This included binding assays for 26 different GPCRs, functional assays of 9 different GPCRs, 40 kinase assays, as well as selected ion channels, proteases, transporter and enzyme assays.

CC(CO)CCC[C@@H](C)[C@H]1CC[C@H]2[C@@H]3[C@H](O)C=C4C[C@@H](O)CC[C@]4(C)[C@H]3CC[C@]12C (stereo partly shown) [7a,27DHC, cholest-5-ene-3b,7a,27-triol]
interaction in safety panel: In none of these assay did we see a significant interaction
